Earlier results as cited in US20140314757A1, “PHYTOCANNABINOIDS FOR USE IN THE TREATMENT OF BREAST CANCER” (priority 2011, published 2014).

Tested on: Her2-positive breast cancers
Conditions: most responders eventually relapse; cited from earlier work

Question: With “trastuzumab: humanized monoclonal antibody against Her2” as the substance, how does the Her2-positive tumours responding read?
Answer: 25%
